# Literature values in patent US8969530B2, “Anti-clathrin heavy chain monoclonal antibody for inhibition of tumor angiogenesis and growth and application thereof” (Academia Sinica, priority 2011, dated 2015).
# System: pancreatic cancer
# Settings: clinical trial, in combination with small molecule drugs; cited from earlier work
substance,measurement,value
cetuximab,improvement in overall survival of pancreatic cancer patients,no significant improvement
